Results taken from patent US8933107B2, “Pesticide thiazolyloxy substituted phenylamidine derivatives” (Bayer Cropscience AG, priority 2005, dated 2015).

How the values were obtained:
[1] = tested on: Myzus persicae; test: Myzus persicae test (MYZUPE spray application); details: Chinese cabbage leaf-disks, concentration and time not stated
[2] = tested on: Heliotis virescens; test: Heliotis virescens test (HELIVI spray application); assay type: in vivo; details: soybean leaf sections, concentration and time not stated

## 4-[(4,5-dichloro-1,3-thiazol-2-yl)oxy]-2,5-dimethyl-N-[piperidin-2-lidene]aniline
[1]
  activity (mortality of aphids): good activity
[2]
  activity (mortality of eggs): good activity
Table 1, HPLC C 18, 40° C., 0.1% aqueous formic acid and acetonitrile
  log p (HCOOH): 1.97
pH 2.3, preparation examples
  log P (pH 2.3): 1.97
